Test results reported in US11491243.

Tests used:
[1] = target: cation-independent mannose 6-phosphate receptor (CI-MPR); assay: CI-MPR (M6P receptor) affinity chromatography; GAA activity (F460) of the fractions; peak before M6P is added
[2] = target: cation-independent mannose 6-phosphate receptor (CI-MPR); assay: CI-MPR plate binding assay (96-well plate coated with CI-MPR, bound GAA activity measured)
[3] = target: cation-independent mannose 6-phosphate receptor (CI-MPR); assay: CI-MPR (M6P receptor) affinity chromatography; GAA activity (F460) of the fractions; elution with an M6P gradient

percent of GAA activity not bound to the M6P receptor column, flow-through peak (rhGAA lacks M6P) [1]: 73% | EC50 (read off the curve) [2]: 4 nM | percent of GAA activity bound to the M6P receptor column and eluted with M6P (rhGAA contains M6P) [3]: 27%
Substance: alglucosidase-alfa (from UniProt P10253 57-952) (enzyme)
